From publication PMC3653324 (Translational stroke research, 2012) come the findings set out here.

The chains behind the UniProt entries cited, without tags or fusion partners.
UniProt P05177, whole entry: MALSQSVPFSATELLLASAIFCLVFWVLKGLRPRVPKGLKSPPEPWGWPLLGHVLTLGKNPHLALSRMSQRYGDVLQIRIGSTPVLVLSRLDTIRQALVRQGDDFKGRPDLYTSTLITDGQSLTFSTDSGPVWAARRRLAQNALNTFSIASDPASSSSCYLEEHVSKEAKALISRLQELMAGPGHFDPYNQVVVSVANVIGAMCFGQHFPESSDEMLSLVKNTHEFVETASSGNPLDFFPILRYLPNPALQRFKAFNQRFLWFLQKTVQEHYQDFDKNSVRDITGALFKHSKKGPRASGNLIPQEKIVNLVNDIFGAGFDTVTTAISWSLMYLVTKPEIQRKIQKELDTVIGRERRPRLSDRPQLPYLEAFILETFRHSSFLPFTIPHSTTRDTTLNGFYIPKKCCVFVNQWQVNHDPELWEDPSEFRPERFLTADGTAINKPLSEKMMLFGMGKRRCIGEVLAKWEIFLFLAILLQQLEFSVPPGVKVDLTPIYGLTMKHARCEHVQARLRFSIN

One may read the IC50 as the midpoint of a concentration-inhibition curve.

The target in the series is CYP1A2 (Homo sapiens, UniProt P05177). The experiment in a line: Cloe Screen Cytochrome P450 Inhibition assay. Type of series: in vitro ADME.

Each structure is given as a SMILES string.

On to `O=c1c(O)c(-c2ccc(O)c(O)c2)oc2c1ccc1ccccc12` [CSMC-6, 3,3',4'-trihydroxy alpha-naphthoflavone], for which the CYP1A2 inhibition classification result (classified from IC50) was “moderate inhibition”. The IC50 (read-out: CYP1A2 IC50, human liver microsomes, substrate head: Phenacetin) came out at 1140 nM.
